Patent US20050136444A1 (priority 2003, published 2005)

Sequences of proteins named here, by UniProt entry; tags and fusion partners are left off. Residues count along the entry.
UniProt Q9Y5X5, 103-522: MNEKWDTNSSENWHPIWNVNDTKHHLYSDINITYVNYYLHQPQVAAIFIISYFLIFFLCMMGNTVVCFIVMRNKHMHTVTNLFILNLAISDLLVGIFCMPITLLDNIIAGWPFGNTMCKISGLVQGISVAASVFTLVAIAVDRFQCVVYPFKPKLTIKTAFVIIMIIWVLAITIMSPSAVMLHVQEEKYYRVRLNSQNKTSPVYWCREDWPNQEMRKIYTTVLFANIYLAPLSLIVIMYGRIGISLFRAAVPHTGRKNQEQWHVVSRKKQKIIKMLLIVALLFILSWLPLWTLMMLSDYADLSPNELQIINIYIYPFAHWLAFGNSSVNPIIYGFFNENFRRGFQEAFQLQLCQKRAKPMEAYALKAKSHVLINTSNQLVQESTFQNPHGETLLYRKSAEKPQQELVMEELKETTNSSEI

Target: NPFF2 (Homo sapiens, UniProt Q9Y5X5)
Test: Receptor Selection and Amplification Technology (R-SAT) functional assay, NPFF2
Assay type: cell-based
Settings: for NPFF2 % Efficacy: Table 1, Efficacy is relative to endogenous ligand; for NPFF2 pEC50: Table 1, NA = No activity detectable at the highest dose tested (20 μM)

| SMILES | NPFF2 % Efficacy [%] | NPFF2 pEC50 |
| --- | --- | --- |
| COc1cccc(/C=N/NC(=N)N)c1 | 47 | 5.0 |
| C/C(=N\NC(=N)N)c1ccc(Cl)cc1Cl | 53 | 5.2 |
| CN(C)c1ccc(/C=N/NC(=N)N)cc1 | 105 | 5.4 |
